System: Caco-2 cells
Experiment: Cell permeability, flux assay using Caco-2 cells
Settings: Caco-2, 2 hours

Papp (B-A): 21.3 ×10⁻⁶ cm/s
SMILES: CC(C)(C)[C@H](c1cc(-c2cc(F)ccc2F)cn1Cc1ccccc1)N(CCCN)C(=O)CO [Example 98, N-(3-aminopropyl)-N-{(1R)-1-[1-benzyl-4-(2,5-difluorophenyl)-1H-pyrrol-2-yl]-2,2-dimethylpropyl}-2-hydroxyacetamide]

— US10022453B2 (BAYER PHARMA AKTIENGESELLSCHAFT, priority 2013, dated 2018)
